# Test: Solubility of cocrystal
# Format: physicochemical
# Conditions: RT
structure (smiles),measurement,value
"CCOc1cc([C@@H](CS(C)(=O)=O)N2C(=O)c3cccc(NC(C)=O)c3C2=O)ccc1OC.Cn1c(=O)c2c(ncn2C)n(C)c1=O [APM-CAF, Cocrystal of N-[2-[(1 S)-1-(3-ethoxy-4-methoxyphenyl)-2-(methylsulfonyl)ethyl]-1,3-dioxo-2,3-dihydro-1H-isoindol-4-yl]acetamide and 1,3,7-trimethylpurine-2,6-dione (caffeine)]",Solubility,Solubility: 20.6µg/ml (RT)
